Structures are written as SMILES.

Protein sequences, listed by entry. Tags and fused reporters are not part of them. Residues count along the entry.
UniProt P51449, 269-508: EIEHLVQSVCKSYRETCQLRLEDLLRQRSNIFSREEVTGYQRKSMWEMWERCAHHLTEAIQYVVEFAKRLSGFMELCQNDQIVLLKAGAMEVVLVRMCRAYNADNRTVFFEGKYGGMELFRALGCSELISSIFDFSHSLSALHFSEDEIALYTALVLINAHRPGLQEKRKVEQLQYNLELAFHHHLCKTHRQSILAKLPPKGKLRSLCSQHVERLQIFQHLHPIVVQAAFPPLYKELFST

For this assay, the target named is RORc ligand binding domain (Homo sapiens (Human), UniProt P51449). Briefly: In Vitro RORc Ligand Binding Assay. The conditions noted are these: radioligand 25-[3H]hydroxycholesterol.
In general, IC50 refers to the midpoint of a concentration-inhibition curve. The low end stands for greater potency in that assay, the high end for weaker potency in that assay. `CCN(C(=O)c1coc(C(C)(C)O)n1)[C@H](C)[C@@]12CC[C@@H](c3cc(-c4c(F)cccc4F)nnc31)C2(C)C` (stereo in doubt) [Compound 206, N-[1-[5-(2,6-difluorophenyl)-11,11-dimethyl-3,4-diazatricyclo[6.2.1.02,7]undeca-2,4,6-trien-1-yl]ethyl]-N-ethyl-2-(1-hydroxy-1-methyl-ethyl)oxazole-4-carboxamide] displayed an IC50 of 6.8 nM.

Molecule `CCN(C(=O)c1coc(C(C)(C)O)n1)[C@@H](C)[C@@]12CC[C@@H](c3cc(-c4c(F)cccc4F)nnc31)C2(C)C` (stereo in doubt) [Compound 207, N-[1-[5-(2,6-difluorophenyl)-11,11-dimethyl-3,4-diazatricyclo[6.2.1.02,7]undeca-2,4,6-trien-1-yl]ethyl]-N-ethyl-2-(1-hydroxy-1-methyl-ethyl)oxazole-4-carboxamide] gave an IC50 of 1.6 nM. In turn, `CC1(C)[C@@H]2CC[C@@]1(NC(=O)OCc1ccccc1)c1nnc(-c3c(F)cccc3F)cc12` [Compound 2, benzyl ((5S,8S)-3-(2,6-difluorophenyl)-9,9-dimethyl-5,6,7,8-tetrahydro-5,8-methanocinnolin-8-yl)carbamate] showed a half-inhibitory concentration (IC50) of 222 nM. The figure for `CN(C(=O)OCc1ccccc1)[C@@]12CC[C@@H](c3cc(-c4c(F)cccc4F)nnc31)C2(C)C` [Compound 3, benzyl ((5R,8R)-3-(2,6-difluorophenyl)-9,9-dimethyl-5,6,7,8-tetrahydro-5,8-methanocinnolin-8-yl)(methyl)carbamate] is 30.2 nM; for `CC(=O)N(C[C@@]12CC[C@@H](c3cc(-c4c(F)cccc4F)nnc31)C2(C)C)c1nnc(C)o1` [Compound 4, N-(((5R,8S)-3-(2,6-difluorophenyl)-9,9-dimethyl-5,6,7,8-tetrahydro-5,8-methanocinnolin-8-yl)methyl)-N-(5-methyl-1,3,4-oxadiazol-2-yl)acetamide] it is 641 nM. As for `CN(C(=O)OCc1ccccc1)[C@]12CC[C@H](c3cc(-c4c(F)cccc4F)nnc31)C2(C)C` [Compound 5, benzyl ((5S,8S)-3-(2,6-difluorophenyl)-9,9-dimethyl-5,6,7,8-tetrahydro-5,8-methanocinnolin-8-yl)(methyl)carbamate], the figure is 479 nM; as for `Cc1cc(C(=O)N(CCF)C[C@@]23CC[C@@H](c4cc(-c5c(F)cccc5F)nnc42)C3(C)C)no1` [Compound 8, N-(((5R,8S)-3-(2,6-difluorophenyl)-9,9-dimethyl-5,6,7,8-tetrahydro-5,8-methanocinnolin-8-yl)methyl)-N-(2-fluoroethyl)-5-methylisoxazole-3-carboxamide], 9.4 nM.

In turn, `CCN(C[C@@]12CC[C@@H](c3cc(-c4c(F)cccc4F)nnc31)C2(C)C)C(=O)c1cccc(O)n1` [Compound 12, N-(((5R,8S)-3-(2,6-difluorophenyl)-9,9-dimethyl-5,6,7,8-tetrahydro-5,8-methanocinnolin-8-yl)methyl)-N-ethyl-6-hydroxypicolinamide] yielded an IC50 of 70 nM.

The molecule `CCN(C(=O)OCc1ccccc1)[C@@]12CC[C@@H](c3cc(-c4c(F)cccc4F)nnc31)C2(C)C` [Compound 14, benzyl ((5R,8R)-3-(2,6-difluorophenyl)-9,9-dimethyl-5,6,7,8-tetrahydro-5,8-methanocinnolin-8-yl)(ethyl)carbamate] yielded a half-inhibitory concentration (IC50) of 29.6 nM. As for `CC1(C)[C@H]2CC[C@]1(CN(CCC#N)C(=O)c1cccc(=O)[nH]1)c1nnc(-c3c(F)cccc3F)cc12` [Compound 15, N-(2-cyanoethyl)-N-(((5R,8S)-3-(2,6-difluorophenyl)-9,9-dimethyl-5,6,7,8-tetrahydro-5,8-methanocinnolin-8-yl)methyl)-6-oxo-1,6-dihydropyridine-2-carboxamide], the figure is 228 nM; as for `CC1(C)[C@H]2CC[C@]1(CN(CC(F)F)C(=O)c1cccc(O)n1)c1nnc(-c3c(F)cccc3F)cc12` [Compound 17, N-(2,2-difluoroethyl)-N-(((5R,8S)-3-(2,6-difluorophenyl)-9,9-dimethyl-5,6,7,8-tetrahydro-5,8-methanocinnolin-8-yl)methyl)-6-hydroxypicolinamide], 51.3 nM.

As for `CCN(C[C@@]12CC[C@@H](c3cc(-c4c(F)cccc4F)nnc31)C2(C)C)C(=O)c1cnc(C)cn1` [Compound 23, N-(((5R,8S)-3-(2,6-difluorophenyl)-9,9-dimethyl-5,6,7,8-tetrahydro-5,8-methanocinnolin-8-yl)methyl)-N-ethyl-5-methylpyrazine-2-carboxamide], the concentration for half-maximal inhibition (IC50) was found to be 20.4 nM. The figure for `CCN(C[C@@]12CC[C@@H](c3cc(-c4c(F)cccc4F)nnc31)C2(C)C)C(=O)c1cnn2cccnc12` [Compound 29, N-(((5R,8S)-3-(2,6-difluorophenyl)-9,9-dimethyl-5,6,7,8-tetrahydro-5,8-methanocinnolin-8-yl)methyl)-N-ethylpyrazolo[1,5-a]pyrimidine-3-carboxamide] is 35.2 nM. Molecule `CC1(N(C[C@@]23CC[C@@H](c4cc(-c5c(F)cccc5F)nnc42)C3(C)C)C(=O)c2c[nH]c(=O)cn2)CC1` [Compound 34, N-(((5R,8S)-3-(2,6-difluorophenyl)-9,9-dimethyl-5,6,7,8-tetrahydro-5,8-methanocinnolin-8-yl)methyl)-N-(1-methylcyclopropyl)-5-oxo-4,5-dihydropyrazine-2-carboxamide] yielded an IC50 of 136 nM. As for `CCN(C[C@@]12CC[C@@H](c3cc(-c4c(F)cccc4F)nnc31)C2(C)C)C(=O)Cc1cnccn1` [Compound 37, N-(((5R,8S)-3-(2,6-difluorophenyl)-9,9-dimethyl-5,6,7,8-tetrahydro-5,8-methanocinnolin-8-yl)methyl)-N-ethyl-2-(pyrazin-2-yl)acetamide], the figure is 24 nM.

Regarding `CCN(C[C@@]12CC[C@@H](c3cc(-c4c(F)cccc4F)nnc31)C2(C)C)C(=O)c1cnc(N)cn1` [Compound 39, 5-amino-N-(((5R,8S)-3-(2,6-difluorophenyl)-9,9-dimethyl-5,6,7,8-tetrahydro-5,8-methanocinnolin-8-yl)methyl)-N-ethylpyrazine-2-carboxamide], the IC50 was found to be 27.9 nM. In the case of `CCN(C[C@@]12CC[C@@H](c3cc(-c4ccccc4F)nnc31)C2(C)C)C(=O)c1c[nH]c(=O)cn1` [Compound 40, N-ethyl-N-(((5R,8S)-3-(2-fluorophenyl)-9,9-dimethyl-5,6,7,8-tetrahydro-5,8-methanocinnolin-8-yl)methyl)-5-oxo-4,5-dihydropyrazine-2-carboxamide], the concentration for half-maximal inhibition (IC50) stood at 30 nM. `CC1(C)[C@H]2CC[C@]1(CN(CC(F)F)C(=O)c1ccc(=O)[nH]c1)c1nnc(-c3c(F)cccc3F)cc12` [Compound 42, N-(2,2-difluoroethyl)-N-(((5R,8S)-3-(2,6-difluorophenyl)-9,9-dimethyl-5,6,7,8-tetrahydro-5,8-methanocinnolin-8-yl)methyl)-6-oxo-1,6-dihydropyridine-3-carboxamide]: the half-maximal inhibitory concentration (IC50) is 75.5 nM. In the case of `CCN(C[C@@]12CC[C@@H](c3cc(-c4c(F)cccc4F)nnc31)C2(C)C)C(=O)c1cnn[nH]1` [Compound 45, N-(((5R,8S)-3-(2,6-difluorophenyl)-9,9-dimethyl-5,6,7,8-tetrahydro-5,8-methanocinnolin-8-yl)methyl)-N-ethyl-1H-1,2,3-triazole-5-carboxamide], the IC50 worked out at 28.2 nM. As for `CCN(C[C@@]12CC[C@@H](c3cc(-c4c(F)cccc4F)nnc31)C2(C)C)C(=O)c1n[nH]c(=O)[nH]1` [Compound 46, N-(((5R,8S)-3-(2,6-difluorophenyl)-9,9-dimethyl-5,6,7,8-tetrahydro-5,8-methanocinnolin-8-yl)methyl)-N-ethyl-5-oxo-4,5-dihydro-1H-1,2,4-triazole-3-carboxamide], the figure is 42.8 nM; as for `CCN(C[C@@]12CC[C@@H](c3cc(-c4c(F)cccc4F)nnc31)C2(C)C)C(=O)C1(O)COC1` [Compound 49, N-(((5R,8S)-3-(2,6-difluorophenyl)-9,9-dimethyl-5,6,7,8-tetrahydro-5,8-methanocinnolin-8-yl)methyl)-N-ethyl-3-hydroxyoxetane-3-carboxamide], 30 nM; as for `CCN(C[C@@]12CC[C@@H](c3cc(-c4c(F)cccc4F)nnc31)C2(C)C)C(=O)C1CCCN1C(N)=O` (stereo partly drawn) [Compound 50, N2-(((5R,8S)-3-(2,6-difluorophenyl)-9,9-dimethyl-5,6,7,8-tetrahydro-5,8-methanocinnolin-8-yl)methyl)-N2-ethylpyrrolidine-1,2-dicarboxamide], 115 nM. `CCN(C[C@@]12CC[C@@H](c3cc(-c4c(F)cccc4F)nnc31)C2(C)C)C(=O)Cc1nnn[nH]1` [Compound 51, N-(((5R,8S)-3-(2,6-difluorophenyl)-9,9-dimethyl-5,6,7,8-tetrahydro-5,8-methanocinnolin-8-yl)methyl)-N-ethyl-2-(1H-tetrazol-5-yl)acetamide] came in with a half-maximal inhibitory concentration (IC50) of 44.2 nM. As for `CCN(C[C@@]12CC[C@@H](c3cc(-c4c(F)cccc4F)nnc31)C2(C)C)C(=O)CN1CCNC(=O)C1` [Compound 53, N-(((5R,8S)-3-(2,6-difluorophenyl)-9,9-dimethyl-5,6,7,8-tetrahydro-5,8-methanocinnolin-8-yl)methyl)-N-ethyl-2-(3-oxopiperazin-1-yl)acetamide], the figure is 76.4 nM; as for `CCN(C[C@@]12CC[C@@H](c3cc(-c4c(F)cccc4F)nnc31)C2(C)C)C(=O)CCC1NC(=O)NC1=O` (stereo partly drawn) [Compound 54, N-(((5R,8S)-3-(2,6-difluorophenyl)-9,9-dimethyl-5,6,7,8-tetrahydro-5,8-methanocinnolin-8-yl)methyl)-3-(2,5-dioxoimidazolidin-4-yl)-N-ethylpropanamide], 37.7 nM. As for `CCN(C[C@@]12CC[C@@H](c3cc(-c4c(F)cccc4F)nnc31)C2(C)C)C(=O)Cn1ccc(=O)[nH]c1=O` [Compound 55, N-(((5R,8S)-3-(2,6-difluorophenyl)-9,9-dimethyl-5,6,7,8-tetrahydro-5,8-methanocinnolin-8-yl)methyl)-2-(2,4-dioxo-3,4-dihydropyrimidin-1(2H)-yl)-N-ethylacetamide], the figure is 74.2 nM.

The record behind these values is US10280144B2, “Pyridazine derivatives as RORc modulators” (Genentech, Inc., priority 2015, dated 2019).
